The values that follow come from ChEMBL document CHEMBL4265918, “Design, synthesis, and biological evaluations of phenylpropiolic acid derivatives as novel GPR40 agonists” (Eur J Med Chem, 2018).

The chains behind the UniProt entries cited, without tags or fusion partners.
UniProt O14842, whole entry: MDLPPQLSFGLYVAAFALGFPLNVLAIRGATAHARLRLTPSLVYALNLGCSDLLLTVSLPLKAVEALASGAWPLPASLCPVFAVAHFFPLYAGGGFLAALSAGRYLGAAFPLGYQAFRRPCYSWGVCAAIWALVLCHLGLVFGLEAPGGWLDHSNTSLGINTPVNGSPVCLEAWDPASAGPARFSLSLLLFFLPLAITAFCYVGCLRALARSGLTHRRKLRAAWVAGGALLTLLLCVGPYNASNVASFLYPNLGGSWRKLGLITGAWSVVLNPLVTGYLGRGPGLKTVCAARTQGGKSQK
UniProt Q76JU9, whole entry: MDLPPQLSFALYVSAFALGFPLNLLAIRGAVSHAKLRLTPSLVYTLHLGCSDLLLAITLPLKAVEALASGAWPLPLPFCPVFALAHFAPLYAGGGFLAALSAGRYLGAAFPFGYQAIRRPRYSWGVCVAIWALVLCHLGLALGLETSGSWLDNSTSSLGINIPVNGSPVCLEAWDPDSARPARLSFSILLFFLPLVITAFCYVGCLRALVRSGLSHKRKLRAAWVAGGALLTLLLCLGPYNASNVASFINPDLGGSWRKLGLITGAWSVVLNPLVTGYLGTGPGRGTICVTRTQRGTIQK

Active and inactive are the calls of the source. No cut-off for these calls is given here.

Format in all cases: functional, cell-based
In experiment [1] the target is T1, Free fatty acid receptor 1 (Homo sapiens, UniProt O14842). The experiment is described as follows: Agonist activity at recombinant human GPR40 expressed in HEK293 cells assessed as phosphorylation of ERK1/2 at 10 after 20 mins by Western blot analysis. In short, it runs like this:
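HEK293-GPR40 cells, or HEK293 with empty vector, were serum-starved 2 h, then treated with compounds at 10 µM, 37 °C, 20 min; GW-1100 antagonist where indicated. Lysates in RIPA buffer with protease/phosphatase inhibitors; 30 µg protein run on 10% SDS-PAGE, blotted and probed for phospho-ERK1/2 (Thr202/Tyr204), total ERK1/2 and GAPDH. EGF 50 ng/mL as positive control.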

Experiment [2] concerns the target T1, Free fatty acid receptor 1. Briefly: Agonist activity at recombinant human GPR40 expressed in HEK293 cells assessed as increase in intracellular calcium flux measured for 120 secs in presence of GPR40 antagonist […] by calcium-5 dye based assay. The method in brief:
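In HEK293-GPR40 cells loaded with Calcium-5 dye, GPR40 antagonist GW-1100 (10 µM) was added for 15 min before agonist stimulation. Intracellular calcium flux was read by fluorescence. Mean ± SEM, unpaired two-tailed t test.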
A general note: Calcium assays in cells follow changes in intracellular calcium, usually with a dye or a luminescent sensor.

Experiment [3] has as its target Free fatty acid receptor 1 (Mus musculus) (UniProt Q76JU9). The experiment is described as follows: Agonist activity at GPR40 in mouse MIN6 cells assessed as increase in glucose-stimulated insulin secretion at 10 uM measured after 2 hrs by ELISA relative to control. In short, it runs like this: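 MIN6 mouse insulinoma cells, grown in high-glucose DMEM with 15% FBS and 72 µM β-mercaptoethanol, plated 50,000/well and cultured 48 h. Cells were starved 30 min in glucose-free DMEM/15% FBS, then given glucose-free DMEM with 2.5 or 25 mM glucose plus compound for 2 h. Secreted insulin in supernatant was measured by mouse insulin ELISA. GW-1100 used at 10 µM. Mean ± SEM, n=3.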
For orientation: An ELISA detects its analyte on a solid surface through an enzyme-linked reagent.

Take `Cc1cc(OCCCS(C)(=O)=O)cc(C)c1-c1cccc(COc2ccc3c(c2)OC[C@H]3CC(=O)O)c1`: in experiment [1], the result was Active. The result in experiment [2] was inactive. In addition, the fold change (FC) in experiment [3] stood at 2.
